Results reported in BindingDB's records for doi:10.1016/0014-2999(84)90478-3 (Mayo Clinic, 1984).

Protein sequences, listed by entry. Tags and fused reporters are not part of them.
UniProt P35367, whole entry: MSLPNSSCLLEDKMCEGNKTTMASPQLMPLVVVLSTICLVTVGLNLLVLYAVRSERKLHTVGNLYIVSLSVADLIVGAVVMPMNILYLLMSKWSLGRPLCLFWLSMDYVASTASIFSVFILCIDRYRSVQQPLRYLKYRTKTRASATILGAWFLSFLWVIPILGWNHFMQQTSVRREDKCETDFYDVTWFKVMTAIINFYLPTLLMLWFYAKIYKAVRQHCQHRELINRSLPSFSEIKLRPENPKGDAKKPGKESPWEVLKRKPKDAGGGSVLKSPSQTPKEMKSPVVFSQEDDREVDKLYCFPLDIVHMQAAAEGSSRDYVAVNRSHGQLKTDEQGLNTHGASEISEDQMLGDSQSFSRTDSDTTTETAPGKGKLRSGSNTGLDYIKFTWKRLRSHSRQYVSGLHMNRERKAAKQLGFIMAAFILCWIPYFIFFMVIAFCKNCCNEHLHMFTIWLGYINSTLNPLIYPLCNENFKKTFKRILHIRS

Biological target: Histamine H1 receptor (Homo sapiens, UniProt P35367)

Compound	Ki [nM]
CN1CCN(C2=c3ccccc3=Nc3ccc(Cl)cc3N2)CC1 [6-chloro-10-(4-methylpiperazin-1-yl)-2,9-diazatricyclo[9.4.0.0^{3,8}]pentadeca-1,3(8),4,6,10,12,14-heptaene]	2.8
CN1CCN(CC/C=C2/c3ccccc3Sc3ccc(S(=O)(=O)N(C)C)cc32)CC1 [MLS000028463]	6
